{
  "sequences": {"note": "By UniProt entry, the sequences of proteins in these tests, tags left out.", "UniProt P08183, whole entry": "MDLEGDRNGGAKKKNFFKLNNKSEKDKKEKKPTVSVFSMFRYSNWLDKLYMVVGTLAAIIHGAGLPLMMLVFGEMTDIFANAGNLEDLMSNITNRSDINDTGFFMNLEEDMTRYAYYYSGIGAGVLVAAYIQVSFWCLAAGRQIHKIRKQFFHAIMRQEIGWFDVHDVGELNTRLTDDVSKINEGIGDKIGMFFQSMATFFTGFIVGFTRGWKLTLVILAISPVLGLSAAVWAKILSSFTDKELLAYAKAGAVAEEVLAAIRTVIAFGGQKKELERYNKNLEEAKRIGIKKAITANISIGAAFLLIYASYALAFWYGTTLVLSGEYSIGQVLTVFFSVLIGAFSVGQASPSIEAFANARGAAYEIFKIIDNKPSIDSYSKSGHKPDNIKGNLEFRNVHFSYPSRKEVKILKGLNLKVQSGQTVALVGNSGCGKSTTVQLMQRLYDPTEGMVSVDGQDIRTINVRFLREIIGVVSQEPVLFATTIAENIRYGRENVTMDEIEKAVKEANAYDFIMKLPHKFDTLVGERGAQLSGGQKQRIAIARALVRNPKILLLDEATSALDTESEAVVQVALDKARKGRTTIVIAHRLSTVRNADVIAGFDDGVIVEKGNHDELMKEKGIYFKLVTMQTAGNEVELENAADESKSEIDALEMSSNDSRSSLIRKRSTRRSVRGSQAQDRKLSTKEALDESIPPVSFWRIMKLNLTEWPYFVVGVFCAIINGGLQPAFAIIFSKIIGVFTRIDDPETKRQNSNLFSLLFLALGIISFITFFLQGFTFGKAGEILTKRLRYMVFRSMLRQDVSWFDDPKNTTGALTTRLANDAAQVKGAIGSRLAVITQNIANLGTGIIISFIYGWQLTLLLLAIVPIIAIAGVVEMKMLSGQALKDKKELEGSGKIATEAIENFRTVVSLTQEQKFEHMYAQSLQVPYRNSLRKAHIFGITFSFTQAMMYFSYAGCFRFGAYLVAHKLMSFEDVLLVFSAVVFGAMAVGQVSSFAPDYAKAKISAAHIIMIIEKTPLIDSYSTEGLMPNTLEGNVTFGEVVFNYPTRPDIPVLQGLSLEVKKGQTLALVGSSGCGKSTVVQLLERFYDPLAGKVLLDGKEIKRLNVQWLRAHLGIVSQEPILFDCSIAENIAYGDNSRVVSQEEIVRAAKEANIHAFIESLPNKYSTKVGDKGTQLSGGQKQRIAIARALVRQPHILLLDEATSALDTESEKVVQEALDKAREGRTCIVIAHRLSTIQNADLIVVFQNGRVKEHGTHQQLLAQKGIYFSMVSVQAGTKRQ"},
  "source": "ChEMBL document CHEMBL1136781",
  "about": "“Comparison of in vitro P-glycoprotein screening assays: recommendations for their use in drug discovery” (J Med Chem, 2003)",
  "key": {"[1]": {"target": "T1, ATP-dependent translocase ABCB1 (Homo sapiens, UniProt P08183)", "experiment": "Inhibition of P-glycoprotein, human L-MDR1 expressed in LLC-PK1 epithelial cells using calcein-AM polarisation assay", "assay_type": "functional, cell-based"}, "[2]": {"target": "T1, ATP-dependent translocase ABCB1", "experiment": "TP_TRANSPORTER: inhibition of Calcein-AM efflux in MDR1-expressing LLC-PK1 cells", "assay_type": "functional, cell-based"}},
  "data": [
    {"smiles": "COC(=O)C1=C(C)NC(C)=C(C(=O)OCCN(C)Cc2ccccc2)C1c1cccc([N+](=O)[O-])c1", "note": "(configuration not stated) [NICARDIPINE]", "values": [
      {"measurement": "IC50", "setting": "[1]", "result": 2300, "unit": "nM"},
      {"measurement": "IC50", "setting": "[2]", "result": 2300, "unit": "nM"}
    ]}
  ]
}
